Amino acid sequences for entries named in this document (tags omitted). Residues count along the entry.
UniProt P30730, 27-700: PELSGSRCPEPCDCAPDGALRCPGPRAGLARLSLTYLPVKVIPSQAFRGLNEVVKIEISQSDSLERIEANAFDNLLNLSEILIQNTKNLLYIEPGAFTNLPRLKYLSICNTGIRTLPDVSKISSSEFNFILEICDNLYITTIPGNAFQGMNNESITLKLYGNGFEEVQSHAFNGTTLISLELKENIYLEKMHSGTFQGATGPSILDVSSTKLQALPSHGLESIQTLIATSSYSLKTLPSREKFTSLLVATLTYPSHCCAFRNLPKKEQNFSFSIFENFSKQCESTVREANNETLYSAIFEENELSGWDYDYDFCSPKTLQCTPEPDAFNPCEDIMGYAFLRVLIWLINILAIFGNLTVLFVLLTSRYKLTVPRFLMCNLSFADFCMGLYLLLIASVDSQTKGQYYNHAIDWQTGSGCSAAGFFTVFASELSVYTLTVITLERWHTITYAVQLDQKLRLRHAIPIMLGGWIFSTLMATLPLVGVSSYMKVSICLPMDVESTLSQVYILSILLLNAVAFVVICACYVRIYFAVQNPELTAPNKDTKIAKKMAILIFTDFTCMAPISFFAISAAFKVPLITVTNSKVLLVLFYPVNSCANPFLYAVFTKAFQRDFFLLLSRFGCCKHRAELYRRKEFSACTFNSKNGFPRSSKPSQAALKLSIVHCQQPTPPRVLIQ

According to patent publication US20250325555A1, “Method of Treating Obesity with a Luteinizing Hormone Receptor Agonist” (ICAHN SCHOOL OF MEDICINE AT MOUNT SINAI, priority 2022, published 2025):

Columns and labels:
[1] = tested on: differentiated 3T3-L1 cells; assay: binding of AlexaFluor-488-labeled hCG to differentiated 3T3-L1 cells; design: species or system mouse
Method: (§1) RNAseq was performed to measure the log2(fold change) for Lep, Cebpb, Cebpa, Ucp2, and Ppargc1b fat genes in differentiated 3T3-L1 adipocytes after treatment with 1 nM LH or hCG for 12 hours.

[2] = biological target: T1, LHCGR in adipose tissue (Mus musculus, UniProt P30730); assay: binding of AlexaFluor-488-labeled hCG in vivo; conditions: injected intraperitoneally
T1 construct: from tissue; host or cells: mouse white adipose tissue (iWAT/sWAT, gWAT) in vivo, C57BL/6 / wild-type mice
Method: hCG BINDING: Recombinant hCG was conjugated with Alexa Fluor 488 Microscale Protein Labelling Kit (Invitrogen A30006) and injected i.p. (0.45 μg).
The binding of labelled hCG was studied in vivo. […] Complementarily, ^89Zr-LH was injected intravenously, followed two hours later by sacrifice and perfusion with PBS before organ retrieval and γ counting.

[3] = tested on: Lhcgr-/- mice; assay: LH in Lhcgr-/- mice on high-fat diet; type: in vivo, mouse; conditions: LH 250 ng i.p.
Method: (§2) To address the confounding actions of high testosterone on bodyfat, the study was repeated in the presence of flutamide (7.5 mg, 60-day low release pellets).

[4] = tested on: organoids derived from 3T3-L1 cells; assay: adipose organoids derived from 3T3-L1 cells, thickness of differentiating cell layer; type: cell-based, mouse; conditions: exposed for 3 days, further differentiated 7 days
Description: (§3) In order to study the mechanism of LHCGR activation on body fat, 3T3.L1 pre-adipocytes and adipose organoids were used. Oil Red 0 staining can be used to mark lipid-containing vacuoles and quantify cell lipid content. […] Organoids were derived from 3T3-L1 cells following 8 days culture on Nunclon Sphera dishes, and exposed to LH, hCG or ORG 43553 for 3 days. They were allowed to further differentiate for 7 days, after which paraffin sections were stained with H&E, and LHCGR expression was confirmed by immunostaining and RNAscope™. The thickness of the “differentiating cell layer” was measured with QuPath-0.2.3.

[5] = biological target: T2, adipose LHCGR (Mus musculus, UniProt P30730); assay: ERK1/2 phosphorylation in differentiated 3T3-L1 adipocytes (Western blot); type: cell-based; conditions: for ERK1/2 phosphorylation: differentiated 3T3-L1 adipocytes; for ERK1/2 phosphorylation with LHCGR siRNA knockdown: siLhcgr 3T3-L1 cells
T2 construct: host or cells: differentiated 3T3-L1 adipocytes
Method: CELL CULTURE: Differentiated 3T3-L1 preadipocytes (Zen-Bio) were treated with hCG or LH for 20 minutes.
siRNA KNOCKDOWN: Lentiviral vectors expressing Lhcgr siRNA (ABM 2649609) or siControl (ABM LVP015-G) were used per manufacturer's recommendation.
WESTERN BLOTTING: Proteins were blotted with commercial antibodies (Cell Signaling, Phospho-ERK1/2, 9101S; ERK1/2, 4695S, 1:5000).

[6] = tested on: C57BL/6 mice fed on high-fat diet; assay: LH or hCG in C57BL/6 male mice on high-fat diet, 6 weeks; type: in vivo; conditions: 250 ng/mouse i.p. twice-a-week
Method: Fourteen-week-old C57BL/6 mice (20 mice/group) were treated with intraperitoneal injections of vehicle (200 μL saline), LH (250 ng/mouse) or hCG (250 ng/mouse), and fed on high-fat diet (TestDiet 0056833) for 6 weeks.
as §2

[7] = tested on: differentiated 3T3-L1 adipocytes; assay: RNAseq of fat genes in differentiated 3T3-L1 adipocytes; type: cell-based, mouse; conditions: 1 nM, 12 hours
Method: as §1

[8] = tested on: C57BL/6 mice fed on high-fat diet; assay: hCG with flutamide or placebo in C57BL/6 mice on high-fat diet; type: in vivo, mouse
Method: In order to evaluate the anti-obesity action of LH/hCG relative to testosterone levels, flutamide, an androgen receptor antagonist, was used to block the increase in testosterone after LH/hCG treatment in mice. Fourteen-week-old C57BL/6 mice (15 mice/group) underwent the following intraperitoneal injections—Group I: vehicle with placebo (placebo 60-day release pellets); Group II: vehicle with flutamide (7.5 mg 60-day release pellets); Group III: hCG (250 ng/mouse) with placebo; Group IV: hCG with flutamide. Mice were fed on high-fat diet for 6 weeks. […] A shown in FIG. 5E, mice treated with hCG had lower iWAT and gWAT weight in both flutamide and placebo groups.
as §2

[9] = tested on: 3T3-L1 adipocytes; assay: oil droplet accumulation (Oil Red O staining) in 3T3-L1 adipocytes; type: cell-based, mouse
Description: as §3

[10] = hCG 250 ng/mouse in the presence of flutamide, high-fat diet
[11] = hCG 250 ng/mouse, both flutamide and placebo groups

AlexaFluor-488-labeled hCG: Recombinant hCG conjugated with Alexa Fluor 488
binding after pretreatment with unlabeled hCG [1]: competitively displaced
binding to differentiated 3T3-L1 cells [1]: specific
binding to fat depots in LHCGR-null mice [2]: but not
binding to fat depots in wildtype mice [2]: localized in mouse iWAT and gWAT; also recorded: bound to gonadal and subcutaneous fatpads

LH: Luteinizing hormone (LH)
fat accrual [3]: failed to inhibit fat accrual
differentiated layer of organoids (thickness) compared to vehicle-treated organoids [4]: substantial reduction
ERK1/2 phosphorylation [5]: induced ERK1/2 phosphorylation in differentiated 3T3L1 adipocytes in a dose-dependent manner; also recorded: rapidly induced ERK1/2 phosphorylation in a concentration-dependent manner
ERK1/2 phosphorylation with LHCGR siRNA knockdown [5]: no signal
body fat mass [6]: markedly reduced body fat mass; also recorded: markedly reduced body fat accrual
glucose tolerance [6]: no difference
lean mass [6]: increased lean mass
serum leptin levels [6]: lower leptin levels
total mass [6]: decreased total mass
fat genes (Lep, Cebpb, Cebpa, Ucp2, Ppargc1b) log2(fold change) by RNAseq [7]: downregulated

hCG: human chorionic gonadotropin (hCG); recombinant hCG
differentiated layer of organoids (thickness) compared to vehicle-treated organoids [4]: substantial reduction
diet-induced fat mass ([8]; hCG 250 ng/mouse in the presence of flutamide (7.5 mg 60-day release pellets), high-fat diet): reduced diet-induced fat mass; also recorded: lean phenotype persisted
lean mass [8, 10]: but not lean mass
total mass [8, 10]: but not lean mass (B) or total mass
gWAT weight [8, 11]: lower
iWAT weight [8, 11]: lower
leptin levels [8, 11]: lower leptin levels
ERK1/2 phosphorylation [5]: induced ERK1/2 phosphorylation in differentiated 3T3L1 adipocytes in a dose-dependent manner; also recorded: rapidly induced ERK1/2 phosphorylation in a concentration-dependent manner
ERK1/2 phosphorylation with LHCGR siRNA knockdown [5]: abrogated; also recorded: no signal
oil droplet accumulation (Oil Red O staining) ([9]; 3T3.L1 adipocytes, 1 nM, 12 hours): reduced oil droplet accumulation
oil droplet accumulation (Oil Red O staining) ([9]; differentiating 3T3-L1 adipocytes): reduced oil droplet accumulation
body fat mass [6]: lower fat mass; also recorded: markedly reduced body fat accrual
glucose tolerance [6]: no difference
iWAT weight [6]: lower iWAT weight
serum leptin levels [6]: lower leptin levels
fat genes (Lep, Cebpb, Cebpa, Ucp2, Ppargc1b) log2(fold change) by RNAseq [7]: downregulated

“Also recorded” adds a separate entry of the source.
